{"source": "paper PMC9861744", "about": "“Polysulfone Membranes Doped with Human Neutrophil Elastase Inhibitors: Assessment of Bioactivity and Biocompatibility” (Membranes, 2023)", "molecular_target": "T1, Human neutrophil elastase (HNE) (Homo sapiens, UniProt P08246)", "T1 construct": "gene ELANE", "T1 sequence (P08246 30-247)": "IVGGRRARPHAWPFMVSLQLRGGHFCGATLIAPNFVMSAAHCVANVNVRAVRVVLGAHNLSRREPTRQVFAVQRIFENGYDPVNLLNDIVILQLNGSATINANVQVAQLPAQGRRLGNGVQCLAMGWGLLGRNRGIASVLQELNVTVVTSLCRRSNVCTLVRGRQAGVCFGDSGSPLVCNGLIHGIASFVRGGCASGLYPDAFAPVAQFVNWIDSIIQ", "assay": "fluorometric HNE activity assay with MeO-Suc-Ala-Ala-Pro-Val-AMC, […] min preincubation, […] °C", "assay_type": "biochemical", "data": [{"smiles": "CC(C)(C)C(=O)Oc1ccc(S(=O)(=O)Nc2ccccc2C(=O)NCC(=O)O)cc1", "note": "[Sivelestat]", "values": [{"measurement": "IC50", "value": 25.7, "unit": "nM"}]}]}
